This is an account of results in patent US20240066131A1 (Protagonist Therapeutics, Inc., priority 2020, published 2024).

This assay has as its target T1, ferroportin (Homo sapiens, UniProt Q9NP59).
T1 sequence (Q9NP59 1-571): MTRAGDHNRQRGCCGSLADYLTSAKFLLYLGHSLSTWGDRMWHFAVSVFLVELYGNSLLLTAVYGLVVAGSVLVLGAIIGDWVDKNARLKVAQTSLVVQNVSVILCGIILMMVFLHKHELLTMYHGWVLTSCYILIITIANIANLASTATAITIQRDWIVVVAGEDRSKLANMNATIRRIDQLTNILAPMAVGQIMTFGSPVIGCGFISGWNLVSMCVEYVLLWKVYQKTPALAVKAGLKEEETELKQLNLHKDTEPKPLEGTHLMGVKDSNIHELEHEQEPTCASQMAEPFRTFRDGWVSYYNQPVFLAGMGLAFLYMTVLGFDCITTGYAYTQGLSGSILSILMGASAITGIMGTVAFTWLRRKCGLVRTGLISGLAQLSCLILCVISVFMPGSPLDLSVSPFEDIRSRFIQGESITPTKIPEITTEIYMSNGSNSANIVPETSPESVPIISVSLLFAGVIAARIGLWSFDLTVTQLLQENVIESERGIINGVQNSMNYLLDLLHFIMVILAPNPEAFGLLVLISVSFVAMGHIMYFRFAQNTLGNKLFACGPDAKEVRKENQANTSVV
Briefly: FPN activity assay: internalization/degradation of ferroportin-GFP in stably transfected HEK293 cells (loss of GFP fluorescence). Type of assay: cell-based. Conditions: Table 6A; read-out: FPN EC50. On the procedure: Following internalization, the ferroporin protein is degraded.
A retro inverse peptide is a peptide with a reversed sequence in all D amino acids. An example is that Hy-Glu-Thr-His-NH2 becomes Hy-DHis-DThr-DGlu-NH2. The EC50 of these reference compounds for ferroportin internalization/degradation was determined according to the FPN activity assay described above. These peptides served as control standards.
In the case of `CCCCCCCCCCCCCCCC(=O)NCCCCCC(=O)NCCCC[C@H](NC(=O)[C@@H]1CCCN1C(=O)[C@@H](NC(=O)[C@H](Cc1c[nH]cn1)NC(=O)[C@@H](NC(=O)[C@H](CCC(=O)O)NC(=O)CC(C)C)[C@@H](C)O)C(c1ccccc1)c1ccccc1)C(N)=O` [compound 8], the DC50 came to 452 nM. Under `CC[C@H](C)[C@H](NC(=O)[C@H](C)NC(=O)[C@@H]1CCCN1C(=O)[C@@H](NC(=O)[C@H](Cc1c[nH]cn1)NC(=O)[C@@H](NC(=O)[C@H](CCC(=O)O)NC(=O)CC(C)C)[C@@H](C)O)C(c1ccccc1)c1ccccc1)C(=O)N[C@H](CCCCN)C(=O)N[C@H](CC(=O)N[C@@H](CCCCNC(C)=O)C(N)=O)Cc1ccccc1` [compound 10] stands 154 nM; under `CC[C@H](C)[C@H](NC(=O)[C@H](C)NC(=O)[C@@H]1CCCN1C(=O)[C@@H](NC(=O)[C@H](Cc1c[nH]cn1)NC(=O)[C@@H](NC(=O)[C@H](CCC(=O)O)NC(=O)CC(C)C)[C@@H](C)O)C(c1ccccc1)c1ccccc1)C(=O)N[C@@H](CCCCNC(=O)COCCOCCNC(=O)COCCOCCNC(=O)CCCCCNC(=O)CCCCCCCCCCCCCCCCC(=O)O)C(=O)N[C@H](CC(=O)N[C@H](CCCCN)C(N)=O)Cc1ccccc1` [compound 17], 20.3 nM; under `CCCCCCCCCCCCCCCC(=O)NCCCCCC(=O)NCCCC[C@H](NC(=O)C[C@H](Cc1ccccc1)NC(=O)[C@@H](CCCCN)NC(=O)[C@H](C)NC(=O)[C@H](C)NC(=O)[C@@H]1CCCN1C(=O)[C@@H](NC(=O)[C@H](Cc1c[nH]cn1)NC(=O)[C@@H](NC(=O)[C@H](CCC(=O)O)NC(=O)CC(C)C)[C@@H](C)O)C(c1ccccc1)c1ccccc1)C(=O)N[C@H](CCCCN)C(=O)N[C@@H](C)C(N)=O` [compound 31], 108 nM. The result for `CCCCCCCCCCCCCCCC(=O)NCCCCCC(=O)NCCCC[C@H](NC(=O)C[C@H](Cc1ccccc1)NC(=O)[C@@H](CCCCN)NC(=O)[C@@H](NC(=O)[C@H](C)NC(=O)[C@@H]1CCCN1C(=O)[C@@H](NC(=O)[C@H](Cc1c[nH]cn1)NC(=O)[C@@H](NC(=O)[C@H](C)NC(=O)CC(C)C)[C@@H](C)O)C(c1ccccc1)c1ccccc1)[C@@H](C)CC)C(=O)N[C@H](CCCCN)C(=O)N[C@@H](C)C(N)=O` [compound 32] reads 34 nM; that for `CCCCCCCCCCCCCCCC(=O)NCCCCCC(=O)NCCCC[C@H](NC(=O)C[C@H](Cc1ccccc1)NC(=O)[C@H](CCCCN)N(C)C(=O)[C@@H](NC(=O)[C@H](C)NC(=O)[C@@H]1CCCN1C(=O)[C@@H](NC(=O)[C@H](Cc1c[nH]cn1)NC(=O)[C@@H](NC(=O)[C@H](Cc1nn[nH]n1)NC(=O)CC(C)C)[C@@H](C)O)C(c1ccccc1)c1ccccc1)[C@@H](C)CC)C(N)=O` [compound 49], 33.2 nM; that for `CCCCCCCCCCCCCCCC(=O)NCCCCCC(=O)NCCCC[C@H](NC(=O)[C@@H](NC(=O)[C@H](C)NC(=O)[C@@H]1CCCN1C(=O)[C@@H](NC(=O)[C@H](Cc1c[nH]cn1)NC(=O)[C@@H](NC(=O)[C@H](CCC(=O)O)NC(=O)CC(C)C)[C@@H](C)O)C(c1ccccc1)c1ccccc1)[C@@H](C)CC)C(=O)NCCc1ccccc1` [compound 51], 108 nM. Take `CCCCCCCCCCCCCCCC(=O)NCCCCCC(=O)NCCCC[C@H](NC(=O)C[C@H](Cc1ccccc1)NC(=O)[C@H]1CCCCNC(=O)CC[C@H](NC(=O)CC(C)C)C(=O)N[C@@H]([C@@H](C)O)C(=O)N[C@@H](Cc2c[nH]cn2)C(=O)N[C@@H](C(c2ccccc2)c2ccccc2)C(=O)N2CCC[C@H]2C(=O)N[C@@H](C)C(=O)N[C@@H]([C@@H](C)CC)C(=O)N1)C(=O)N[C@@H](CCCNC(=N)N)C(N)=O` [compound 56]: the DC50 amounted to 11.4 nM. The result for `CCCCCCCCCCCCCCCC(=O)NCCCCCC(=O)NCCCC[C@H](NC(=O)[C@@H](NC(=O)[C@@H]1CCCN1C(=O)[C@@H](NC(=O)[C@H](Cc1c[nH]cn1)NC(=O)[C@@H](NC(=O)[C@H](CCC(=O)O)NC(=O)CC(C)C)[C@@H](C)O)C(c1ccccc1)c1ccccc1)[C@@H](C)CC)C(=O)N[C@H](CC(N)=O)Cc1ccccc1` [compound 84] reads 156 nM. For the molecule `CCCCCCCCCCCCCCCC(=O)NCCCCCC(=O)NCCCC[C@H](NC(=O)CN(CCC(C)C)C(=O)[C@H](C)NC(=O)[C@@H]1CCCN1C(=O)[C@@H](NC(=O)[C@H](Cc1c[nH]cn1)NC(=O)[C@@H](NC(=O)[C@H](CCC(=O)O)NC(=O)CC(C)C)[C@@H](C)O)C(c1ccccc1)c1ccccc1)C(=O)N[C@H](CC(N)=O)Cc1ccccc1` [compound 91], the DC50 is 13 nM. With `CCCCCCCCCCCCCCCC(=O)NCCOCCOCC(=O)NCCCC[C@H](NC(=O)[C@@H](NC(=O)[C@H](C)NC(=O)[C@@H]1CCCN1C(=O)[C@@H](NC(=O)[C@H](Cc1c[nH]cn1)NC(=O)[C@@H](NC(=O)[C@H](CCC(=O)O)NC(=O)CC(C)C)[C@@H](C)O)C(c1ccccc1)c1ccccc1)[C@@H](C)CC)C(=O)N[C@H](CC(N)=O)Cc1ccccc1` [compound 94], the DC50 is 11.8 nM. Consider `CCCCCCCCCCCCCCCC(=O)N[C@@H](CCC(=O)NCCOCCOCC(=O)NCCOCCOCC(=O)NCCCC[C@H](NC(=O)[C@@H](NC(=O)[C@H](C)NC(=O)[C@@H]1CCCN1C(=O)[C@@H](NC(=O)[C@H](Cc1c[nH]cn1)NC(=O)[C@@H](NC(=O)[C@H](CCC(=O)O)NC(=O)CC(C)C)[C@@H](C)O)C(c1ccccc1)c1ccccc1)[C@@H](C)CC)C(=O)N[C@H](CC(N)=O)Cc1ccccc1)C(=O)O` [compound 102], for which the DC50 stood at 16.4 nM.

Take `CCCCCCCCCCCCCCCC(=O)NCCCCCC(=O)NCCCC[C@H](NC(=O)[C@@H](NC(=O)[C@@H]1CCCN1C(=O)[C@@H](NC(=O)[C@H](Cc1c[nH]cn1)NC(=O)[C@@H](NC(=O)[C@H](CCC(=O)O)NC(=O)CC(C)C)[C@@H](C)O)C(c1ccccc1)c1ccccc1)[C@@H](C)CC)C(=O)N[C@H](CC(N)=O)Cc1ccccc1` [compound 127]: the DC50 was determined as 35.8 nM. Consider `CCCCCCCCCCCCCCCC(=O)NCCCCCC(=O)NCCCC[C@H](NC(=O)[C@@H](NC(=O)[C@H](C)NC(=O)[C@@H]1CCCN1C(=O)[C@@H](NC(=O)[C@H](Cc1c[nH]cn1)NC(=O)[C@@H](NC(=O)[C@H](CCC(=O)O)NC(=O)CC(C)C)[C@@H](C)O)C(c1ccccc1)c1ccccc1)[C@@H](C)CC)C(=O)N[C@H](CC(=O)N[C@H](CCCCN)C(N)=O)Cc1ccccc1` [compound 130], for which the DC50 was found to be 48.9 nM.
